Measured values: PubChem BioAssay AID651800 (The Scripps Research Institute Molecular Screening Center, 2012)
Only a part is listed here, and it is no random draw. Activity calls are given as the source filed them. Cut-off read from the data, not from the text of the source: active = inhibition above about 19%; inactive = the rest.

What follows are compounds tested on T-cell receptor (TCR) (assay: inhibitors of human TCR-CD3 interaction, primary screen, biochemical, fluorescence, TAMRA-labeled TCR probe (AID 651800;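 note: recombinant mutant TCR 2C K166C tagged with TAMRA read by polarization; 0% = receptor in buffer alone and 100% = receptor with positive control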)). Conditions: at 9.4 µM, active compounds read high.

Question: With CC(C)(C)c1ccc(OP(C)(=O)O)cc1 as the compound, how does the inhibition read?
Answer: inactive: 1.21%

Question: COc1ccccc1OP(C)(=O)Nc1ccccc1Br (stereo not given) was tested. Which inhibition did it give?
Answer: inactive: 2.08%

Question: How did the inhibition turn out when CN(C)C(=O)c1c([N+](=O)[O-])cc([N+](=O)[O-])cc1[N+](=O)[O-] was run?
Answer: inactive: 2.4%

Question: Which inhibition does the source give for Nc1ccc2c(ccc3cccnc32)n1.O=[N+]([O-])c1cc([N+](=O)[O-])c(O)c([N+](=O)[O-])c1 here?
Answer: inactive: 1.87%

Question: Which inhibition does the source give for CP(=O)(OC12CC3CC(CC(C3)C1)C2)OC12CC3CC(CC(C3)C1)C2 here?
Answer: inactive: -2.79%

Question: CCOC(=O)c1ccc(NP(C)(=O)Oc2ccc(Cl)cc2)cc1 (stereo not given) was tested. Which inhibition did it give?
Answer: inactive: 0.41%

Question: Which inhibition does the source give for CP(=S)(Nn1cnnc1)Oc1ccccc1 (stereo not given) here?
Answer: inactive: 6.28%

Question: With COc1ccccc1OP(C)(=O)Nc1ccccc1 (stereo not given) as the compound, how does the inhibition read?
Answer: inactive: -3.59%

Question: Which inhibition does the source give for CP(=O)(Nc1ccccc1Br)Oc1ccccc1 (stereo not given) here?
Answer: inactive: -2.79%

Question: With CP(=O)(Oc1ccccc1)OC(c1ccccc1)C(F)(F)F (stereo not given) as the compound, how does the inhibition read?
Answer: inactive: 3.51%

Question: With Cc1cccc(C)c1OP(C)(=O)Nc1ccc(SC(F)(F)F)cc1 (stereo not given) as the compound, how does the inhibition read?
Answer: inactive: -1.48%

Question: How did the inhibition turn out when CP(=O)(Nc1ccc(SC(F)(F)F)cc1)Oc1ccc(Cl)cc1 (stereo not given) was run?
Answer: inactive: -4.83%

Question: Which inhibition does the source give for Cc1cc(C)cc(OP(C)(=O)Nc2ccc(SC(F)(F)F)cc2)c1 (stereo not given) here?
Answer: inactive: 2.52%

Question: How did the inhibition turn out when CCc1ccc(OP(C)(=O)N2CCN(c3ccc([N+](=O)[O-])cc3)CC2)cc1 (stereo not given) was run?
Answer: inactive: -5.4%

Question: How did the inhibition turn out when CP(=O)(NC(=O)Nc1ccccc1)Oc1ccccc1 (stereo not given) was run?
Answer: inactive: 3.12%

Question: CCOP(C)(=S)SCC(=O)NC(C)C(=O)O (stereo not given) was tested. Which inhibition did it give?
Answer: inactive: 1.24%

Question: How did the inhibition turn out when CCOC(=O)c1ccc(NP(C)(=O)Oc2ccc(OC)cc2)cc1 (stereo not given) was run?
Answer: inactive: 5.9%

Question: For O=[N+]([O-])c1cc([N+](=O)[O-])c(O)c([N+](=O)[O-])c1.c1ccc(Oc2ccncc2)cc1, which inhibition is on record?
Answer: inactive: -8.57%

Question: How did the inhibition turn out when CP(=O)(Nc1ccccn1)Oc1ccc(Cl)cc1 (stereo not given) was run?
Answer: inactive: 0.49%

Question: How did the inhibition turn out when CCN(CC)CCCOC(=O)C(O)(c1ccccc1)c1ccccc1 was run?
Answer: inactive: -1.89%

Question: Which inhibition does the source give for COc1ccccc1-c1ccccn1.O=[N+]([O-])c1cc([N+](=O)[O-])c(O)c([N+](=O)[O-])c1 here?
Answer: inactive: -0.99%

Question: Which inhibition does the source give for O=[N+]([O-])c1cc([N+](=O)[O-])c(Nc2cccnc2)c([N+](=O)[O-])c1 here?
Answer: inactive: 1.43%

Question: How did the inhibition turn out when Cc1cccc(C)c1OP(C)(N)=O (stereo not given) was run?
Answer: inactive: -1.68%

Question: With CC(C)(C)c1ccc(OP(C)(=O)Nc2ccc(SC(F)(F)F)cc2)cc1 (stereo not given) as the compound, how does the inhibition read?
Answer: inactive: -0.02%

Question: Which inhibition does the source give for O=[N+]([O-])c1ccc2c(c1)C=Nc1ccccc1O2 here?
Answer: inactive: -1.04%

Question: With CCOC(=O)c1ccc(NP(C)(=O)Oc2ccccc2)cc1 (stereo not given) as the compound, how does the inhibition read?
Answer: inactive: -11.2%

Question: Cc1ccc(NP(C)(=O)Oc2ccccc2)c(C)c1 (stereo not given) was tested. Which inhibition did it give?
Answer: inactive: -3.39%

Question: For COc1ccccc1OP(C)(=O)Nc1ccc(C)cc1 (stereo not given), which inhibition is on record?
Answer: inactive: -2.3%

Question: For COc1ccc(OP(C)(=O)Nc2cccc(F)c2)cc1 (stereo not given), which inhibition is on record?
Answer: inactive: 2.04%

Question: Which inhibition does the source give for COc1ccccc1OP(C)(=O)Nc1cc(Cl)ccc1C (stereo not given) here?
Answer: inactive: 7.29%

Question: Cc1cc(C)cc(OP(C)(N)=O)c1 (stereo not given) was tested. Which inhibition did it give?
Answer: inactive: -3.66%

Question: O=C(O)c1cccc(Nc2c([N+](=O)[O-])cc([N+](=O)[O-])cc2[N+](=O)[O-])c1 was tested. Which inhibition did it give?
Answer: inactive: 8.34%

Question: For CC1=NCCc2c1[nH]c1ccccc21.O=[N+]([O-])c1cc([N+](=O)[O-])c(O)c([N+](=O)[O-])c1, which inhibition is on record?
Answer: inactive: -9.09%

Question: With COc1ccccc1OP(C)(=O)Nc1cccc(Br)c1 (stereo not given) as the compound, how does the inhibition read?
Answer: inactive: -13%

Question: For Cc1cc(C)cc(OP(C)(=O)Nc2ccc(C)cc2C)c1 (stereo not given), which inhibition is on record?
Answer: inactive: 1.05%

Question: For CCOC(=O)c1ccc(NP(C)(=O)Oc2cc(C)cc(C)c2)cc1 (stereo not given), which inhibition is on record?
Answer: inactive: -4.95%

Question: With CP(=O)(Nc1cccc(Br)c1)Oc1ccccc1 (stereo not given) as the compound, how does the inhibition read?
Answer: inactive: 4.09%

Question: How did the inhibition turn out when Cc1cc(C)cc(OP(C)(=O)Nc2ccccn2)c1 (stereo not given) was run?
Answer: inactive: -5.59%

Question: With Cc1ccc(C)c(NP(C)(=O)Oc2ccccc2)c1 (stereo not given) as the compound, how does the inhibition read?
Answer: inactive: 0.65%

Question: How did the inhibition turn out when O=[N+]([O-])c1cc([N+](=O)[O-])c(-n2nnc3ccccc32)c([N+](=O)[O-])c1 was run?
Answer: inactive: -4.39%

Question: With CN(Cc1cccnc1)C(=O)COc1ccc(Cl)c(Cl)c1.O=[N+]([O-])c1cc([N+](=O)[O-])c(O)c([N+](=O)[O-])c1 as the compound, how does the inhibition read?
Answer: inactive: -10.2%

Question: With O=[N+]([O-])c1cc([N+](=O)[O-])c(-c2cnn(-c3ccccc3)c2)c([N+](=O)[O-])c1 as the compound, how does the inhibition read?
Answer: inactive: -9.14%

Question: Cc1nc2ccc3ccccc3c2s1.O=[N+]([O-])c1cc([N+](=O)[O-])c(O)c([N+](=O)[O-])c1 was tested. Which inhibition did it give?
Answer: inactive: -8%

Question: Which inhibition does the source give for CCOC(=O)C(CC)C1=NC(C)(C)Cc2ccccc21.O=[N+]([O-])c1cc([N+](=O)[O-])c(O)c([N+](=O)[O-])c1 (stereo not given) here?
Answer: inactive: 3.3%

Question: With O=[N+]([O-])c1cc([N+](=O)[O-])c(Nc2nnnn2CCO)c([N+](=O)[O-])c1 as the compound, how does the inhibition read?
Answer: inactive: 9.73%

Question: COc1ccccc1OP(C)(=O)Nc1c(C)cccc1C (stereo not given) was tested. Which inhibition did it give?
Answer: inactive: 9.09%

Question: With CN1CCCCC1COC(=O)C1(O)c2ccccc2CCc2ccccc21 (stereo not given) as the compound, how does the inhibition read?
Answer: inactive: 4.4%

Question: Which inhibition does the source give for CP(=O)(Nc1ccc(SC(F)(F)F)cc1)Oc1ccccc1 (stereo not given) here?
Answer: inactive: 6.44%

Question: Which inhibition does the source give for CCCOc1ccc(NP(C)(=O)Oc2ccc(Cl)cc2)cc1 (stereo not given) here?
Answer: inactive: -1.77%

Question: COc1ccc(-c2ccccn2)cc1.O=[N+]([O-])c1cc([N+](=O)[O-])c(O)c([N+](=O)[O-])c1 was tested. Which inhibition did it give?
Answer: inactive: 2.36%
